miR-21 FLuc – miR-21 reporter, rising signal | 340,000 tested, under 10 active | AID 2288 | HeLa miR-21 FLuc reporter, luciferase, 48 h | Potency, µM (titrated, usually from 38.3 µM); active = well fitted rising curve with a large enough effect; inconclusive = small, poorly fitted or top-dose-only effect; inactive = no such curve, though single readings can be large or run the other way;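 further: miR-21 action dims this reporter so a rising signal means less miR-21 action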
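HeLa cells stably expressing CMV-driven firefly luciferase with a downstream miR-21 binding sequence, endogenously expressing miR-21, were treated with titrations (up to about 40uM final) for 48 hours at 37 degree Celsius. Luciferase luminescence was read after lysis.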
TrxR1 inh – inhibitors of rat thioredoxin reductase 1; O89049; recombinant rTrxR1, NADPH fluorescence consumption, selenite substrate; Potency, µM (titrated, usually from 114 µM), most hits filed as inhibitors; 1% of 390,000 active; AID 588453; further: nearly all actives have a fitted effect of over 65% in size
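Rat TrxR1 (90 nM in the dispensed reagent) was pre-reduced with 400 uM NADPH for 5 min at room temperature, then incubated with compound for 15 min. After 400 uM selenite was added, NADPH fluorescence (Ex 340/Em 450 nm) was followed for 8 min.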
GALK inhibitor – galactokinase (human) inhibition | P51570 | Purified GALK, Kinase-Glo residual ATP luminescence | Potency, µM (doses to about 57.5 µM), usual class: inhibitors | 0.007% of 270,000 active
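Human GALK (5 nM) with 35 uM ATP and 100 uM galactose in 20 mM HEPES pH 8.0, 5 mM MgCl2, 60 mM NaCl, 1 mM DTT, 0.01% BSA. After 1 h at room temperature, leftover ATP was read by Kinase-Glo Plus luminescence.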
PINK1 modulator – PINK1 expression modulation; PINK1 immunofluorescence, high-content cytometry, 24 h; Potency, µM (top dose mostly 76.6 µM), usual class: activators; 0.2% of 410,000 active; AID 624263; active means well fitted activation curve with a large enough effect; inconclusive means small, poorly fitted or top-dose-only effect; cell line not stated here; further: nearly all actives have a fitted effect of over 65% in size
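A stable cell line was treated with compounds at 5 concentrations for 24 hours, with CCCP as control. PINK1 levels and mitochondrial localization were measured by immunofluorescence with mitochondrial, cell and nuclear markers after fixation, read by laser-scanning cytometry.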
TrxR1 substrate – substrates of rat thioredoxin reductase 1. O89049. purified TrxR1 substrate turnover, NADPH consumption readout. Potency, µM (doses to about 114 µM). 0.01% of 390,000 active. AID 588456; further: nearly all actives have a fitted effect of over 50% in size
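Rat TrxR1, dispensed at 90 nM, was prereduced with 400 uM NADPH (final) for 5 min at ~22 deg C, then incubated with compound 15 min before 400 uM selenite. A first-read NADPH fluorescence drop versus no-compound background flagged substrates.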
Each line names hits and unclear results; the compound was inactive in the other large screens; ! = not confirmed by another sample. Only some compounds are listed: those with a hit (about 1.1% of all), similar ones and a draw of the others. Unless noted, the call rests on the fitted dose curve; in most records, active means well fitted curve in the direction sought with a large enough effect; inconclusive means small, poorly fitted or top-dose-only effect, or another doubt; inactive means no such curve, though single readings can be large; an effect the other way counts as inactive or inconclusive.

Cc1ccc(CNC(=O)Cn2ccc3ccccc3c2=O)o1	TrxR1 inh 40µM
Cc1ccc(Cl)cc1NC(=O)c1oc2ccc(S(=O)(=O)N3CCCCC3)cc2c1C	none (no result: GALK inhibitor)
O=c1c(-c2ccc(F)cc2)nc2cnc(Nc3ccccc3)nc2n1C[C@H]1CCCO1	none (no result: miR-21 FLuc, TrxR1 inh, GALK inhibitor, TrxR1 substrate)
Cc1ccc(-c2nn(CCC#N)cc2C=C(C#N)C#N)cc1	TrxR1 inh 7.9µM (no result: PINK1 modulator)
CC(=NNC(=S)N1CCC1)c1ccccn1	TrxR1 inh 7.1µM (no result: miR-21 FLuc, GALK inhibitor)
CC(=NNC(=S)N1CCCC1)c1ccccn1	none (no result: miR-21 FLuc, TrxR1 inh, GALK inhibitor, TrxR1 substrate)
CCOc1ccc(C(C)=O)cc1N1C(=O)C2C3C=CC(O3)C2C1=O (stereo not drawn)	miR-21 FLuc inconclusive, TrxR1 inh 3.2µM
CCOc1ccc(C(C)=O)cc1N1C(=O)C2C3C=CC(C3)C2C1=O (stereo not drawn)	none
Cc1ccc(C)c(Nc2nnc(-n3nc(C)cc3C)c3ccccc23)c1	none (no result: GALK inhibitor)
CC(=O)Nc1nonc1-c1nc2ccccc2n1CC1CC1	none
CC(=O)Nc1nonc1-c1nc2ccccc2n1N(C(C)=O)C(C)=O	TrxR1 inh 56µM
Cc1ccc(C(CC(=O)Nc2ccc(C)cc2C)N2Cc3ccccc3C2=O)cc1 (stereo not drawn)	none (no result: GALK inhibitor)
O=C(NCc1cccnc1)/C(=C/c1ccc(-c2cccc(Cl)c2)o1)S(=O)(=O)c1ccccc1	miR-21 FLuc inconclusive, TrxR1 inh inconclusive
O=C(NCc1cccnc1)/C(=C\c1ccc(-c2cccc(Cl)c2)o1)S(=O)(=O)c1ccccc1	miR-21 FLuc inconclusive, TrxR1 inh 11µM
Cn1c2c(c(=O)n(C)c1=O)C(c1ccccc1[N+](=O)[O-])CC(=O)N2 (stereo not drawn)	none (no result: GALK inhibitor)
CCOc1ccc(NC(=O)CN(Cc2ccccc2)S(=O)(=O)c2ccc3nc(C)sc3c2)cc1	none (no result: GALK inhibitor)
COc1ccc(-c2nc3cnc(Nc4ccccc4)nc3n(CCC#N)c2=O)cc1	PINK1 modulator 11µM (no result: miR-21 FLuc, TrxR1 inh, GALK inhibitor, TrxR1 substrate)
COc1ccc(-c2nc3cnc(Nc4cccc(OC)c4)nc3n(CCC#N)c2=O)cc1	PINK1 modulator 45µM (no result: miR-21 FLuc, TrxR1 inh, GALK inhibitor, TrxR1 substrate)
COc1cccc(Nc2ncc3nc(-c4cc(F)cc(F)c4)c(=O)n(CCC#N)c3n2)c1	none (no result: miR-21 FLuc, TrxR1 inh, GALK inhibitor, TrxR1 substrate)
COc1ccc(-c2nc3cnc(Oc4ccccc4)nc3n(CCC#N)c2=O)cc1	none (no result: miR-21 FLuc, TrxR1 inh, GALK inhibitor, TrxR1 substrate)
Cc1ccc2c(c1)C1(C(=O)N2C)N2CC3(C)CN1CC(C)(C2)C3=O (stereo not drawn)	none
Cc1ccc2c(c1)CC1(CN2C)C(=O)OC(C)(C)OC1=O	TrxR1 inh 20µM!
NC(=O)C1CCN(c2nc(C3CC3)nc3c2nnn3Cc2ccccc2Cl)CC1	PINK1 modulator 11µM
Cc1cc(C)nc(SCC(=O)NC2=NN=C(c3ccc(Br)cc3)CS2)n1	miR-21 FLuc inconclusive, PINK1 modulator inconclusive
CCC(Sc1nc(C)cc(C)n1)C(=O)NC1=NN=C(c2ccc(C)cc2)CS1 (stereo not drawn)	PINK1 modulator 14µM
N/C(=N\OC(=O)c1ccc(Cl)cc1)c1nonc1N	PINK1 modulator 7.9µM
N/C(=N/OC(=O)c1ccccc1F)c1nonc1N	none
CN(C)c1cc2c(cc1NC(=O)c1ccc(F)cc1)n(C)c(=O)n2C	none (no result: GALK inhibitor)
CCCc1nn2c(=O)cc(COC(=O)CNC(=O)COc3ccc(C)cc3)nc2s1	none (no result: GALK inhibitor)
CCC/C=C/c1ccc(CN2C(C)C(=O)N(Cc3cn(CCC4OCCO4)nn3)CCS2(=O)=O)cc1 (stereo not drawn)	none (no result: miR-21 FLuc, TrxR1 inh, GALK inhibitor, TrxR1 substrate)
Cc1occc1C(=O)NCc1cccc(CNC(=O)c2ccoc2C)c1	TrxR1 inh 8.9µM
COc1ccc(CNc2ncnc3nc[nH]c23)cc1	none (no result: miR-21 FLuc, GALK inhibitor)
Cc1ccc(C(=O)NCCc2nnc3n2CCN(C(=O)c2ccnc(Cl)c2)CC3)cc1	none (no result: miR-21 FLuc, TrxR1 inh, GALK inhibitor, TrxR1 substrate)
O=[N+]([O-])c1cc([N+](=O)[O-])c2oc(-c3ccccc3)c(Br)c2c1O	GALK inhibitor inconclusive, PINK1 modulator 35µM
Cc1ccc(CNC(=O)C2CCN(S(=O)(=O)c3cccs3)CC2)o1	TrxR1 inh 8.9µM
Cc1ccc(CNC(=O)C2CCC(=O)N(CC3CCCCC3)C2)o1 (stereo not drawn)	TrxR1 inh 50µM
Cc1ccc(CNC(=O)C2CCN(S(=O)(=O)c3cccs3)CC2)cc1	none
Cc1ccc(CNC(=O)C2CCC(=O)N(Cc3cccc(C(F)(F)F)c3)C2)o1 (stereo not drawn)	TrxR1 inh 35µM (no result: miR-21 FLuc, GALK inhibitor)
CCCc1cc(=O)[nH]c(Nc2cc(C)ccc2OC)n1	none (no result: GALK inhibitor)
Cc1ccc(C(=O)NC(C#N)=C(Cl)Cl)cc1	miR-21 FLuc inconclusive, TrxR1 inh 3.2µM
COc1ccc(C2CC(c3cccs3)=NN2C(=O)CCC(=O)O)cc1 (stereo not drawn)	none
COc1ccc(C2CC(c3cccs3)=NN2C(=O)CCl)cc1OC (stereo not drawn)	miR-21 FLuc inconclusive, TrxR1 inh 7.9µM
CCN1CCc2c(OCC(=O)N3N=C(c4cccs4)CC3c3ccc(F)cc3)cccc2C1=O (stereo not drawn)	none
COc1ccc(C2CC(c3cccs3)=NN2C(=O)c2ccccc2)cc1OC (stereo not drawn)	none
COc1cc(C2CC(c3cccs3)=NN2C(=O)CCl)ccc1OC(F)F (stereo not drawn)	miR-21 FLuc inconclusive, TrxR1 inh 7.9µM
CN1CCc2c(OCC(=O)N3N=C(c4cccs4)CC3c3ccc(F)cc3)cccc2C1=O (stereo not drawn)	TrxR1 inh 14µM

Assay outcomes deposited in PubChem BioAssay by National Center for Advancing Translational Sciences (NCATS).
